Target: D(2) dopamine receptor (Rattus norvegicus, UniProt P61169)
Assay: Displacement of [3H]Spiperone from rat dopamine D2L receptor expressed in HEK293 cells
Type: cell-based

Sequences of proteins named here, by UniProt entry; tags and fusion partners are left off.
UniProt P61169, whole entry: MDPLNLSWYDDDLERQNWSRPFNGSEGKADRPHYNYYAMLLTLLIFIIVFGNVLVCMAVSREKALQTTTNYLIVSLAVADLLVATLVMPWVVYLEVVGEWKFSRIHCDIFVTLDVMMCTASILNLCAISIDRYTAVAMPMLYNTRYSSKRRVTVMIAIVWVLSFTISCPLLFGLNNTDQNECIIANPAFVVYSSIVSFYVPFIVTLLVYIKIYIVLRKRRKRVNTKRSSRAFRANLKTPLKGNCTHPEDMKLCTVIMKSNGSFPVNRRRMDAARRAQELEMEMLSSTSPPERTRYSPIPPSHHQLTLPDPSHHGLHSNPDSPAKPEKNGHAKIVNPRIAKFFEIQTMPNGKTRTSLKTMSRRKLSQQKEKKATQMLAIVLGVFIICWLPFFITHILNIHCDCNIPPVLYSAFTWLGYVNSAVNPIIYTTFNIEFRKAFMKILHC

SMILES	Ki
CCCN(CCN1CCN(c2ccccc2)CC1)[C@H]1CCc2c(O)cccc2C1	26 nM
CCCN(CCN1CCN(c2ccccc2)CC1)[C@@H]1CCc2c(O)cccc2C1	238 nM
